According to patent publication US11096924B2, “Combination therapies using immuno-dash inhibitors and PGE2 antagonists” (Trustees of Tufts College, priority 2016, dated 2021):

Tests used:
[1] = tested on: RAW 264.7 WT cells; test: Pyroptosis in RAW 264.7 WT cells; format: cell-based; conditions: Mus musculus, RAW264.7
[2] = tested on: THP-1 sgGFP; test: Pyroptosis in THP-1 sgGFP cells; format: cell-based; conditions: Homo sapiens
[3] = tested on: MV4; 11 Luc-Neo; test: Pyroptosis in MV4;11 Luc-Neo cells; format: cell-based; conditions: Homo sapiens
[4] = tested on: RAW 264.7, MV4; 11, THP-1 cells; test: Pyroptosis inducing activity in vitro (Example 7); format: cell-based; conditions: bound stated
[5] = tested on: macrophages; test: Pyroptosis of macrophages in cell culture; format: cell-based; conditions: Macrophage; Example 2 table; unit inferred
[6] = tested on: MB49 murine urothelial carcinoma cell line; test: MB49 efficacy studies in tumor bearing mice; format: in vivo; conditions: MB49 mouse tumor model, truncated dosing schedules
[7] = phase I clinical trials in humans; cited from earlier work

N[C@H](C(=O)N1CCC[C@H]1B(O)O)C12CC3CC(CC(O)(C3)C1)C2 (relative stereo) [ARI-3102A]
IC50 [1]: 173 nM | IC50 [2]: 376 nM | IC50 [3]: 571 nM

CC(C)(C)[C@H](N)C(=O)N1CCC[C@H]1B(O)O [ARI-4175]
IC50 [4]: < 10 nM | IC50 [1]: 14 nM | IC50 [5]: 14 nM

CC1([C@H](N)C(=O)N2CCC[C@H]2B(O)O)CCCCC1 (relative stereo) [ARI-4175CH]
IC50 [4]: < 10 nM | IC50 [2]: 0.9 nM | IC50 [3]: 0.2 nM

CC(C)(F)[C@H](N)C(=O)N1CCC[C@H]1B(O)O (relative stereo) [ARI-4268]
antitumor activity [6]: displays antitumor activity

CC(C)[C@H](N)C(=O)N1CCC[C@H]1B(O)O [Val-boroPro, Valine-boroProline]
tolerability [7]: appeared to be well tolerated

N[C@H](C(=O)N1CCC[C@H]1B(O)O)C12CC3CC(CC(Cl)(C3)C1)C2 (relative stereo) [ARI-3102C]
IC50 [4]: < 10 nM | IC50 [1]: 3 nM | IC50 [2]: 7 nM | IC50 [3]: 1 nM

N[C@H](C(=O)N1CCC[C@H]1B(O)O)C12CC3CC(CC(C3)C1)C2 (relative stereo) [ARI-5544, Gly(1-adamantyl)-boroPro]
IC50 [4]: < 10 nM | IC50 [1]: 2 nM | IC50 [2]: 0.2 nM | IC50 [3]: < 0.1 nM
